# Values of other authors, collected in patent publication US20240180923A1, “METHODS OF TREATING DISORDERS WITH ULK INHIBITORS” (Deciphera Pharmaceuticals, LLC, priority 2022, published 2024).
# Settings: cetuximab 500 mg/m^2 Q2W versus 250 mg/m^2 QW; cited from earlier work
substance,measurement,value
cetuximab,"Cmin at steady state, 500 mg/m^2 Q2W lower than 250 mg/m^2 QW",23-25%
